Several values for one entry are separate records, joined by “and”; a condition that tells them apart may be missing. Equal entries are not always repeated.
Biological target: BCL-2 G101V/E152A double mutant (Homo sapiens, UniProt P10415, E152A/G101V)
Test: Steady-state competition SPR against immobilised BIMBH3 peptide, BCL-2 G101V/E152A double mutant
Format: binding
Settings: competition vs BIMBH3 SPR surface, mean ± SD, n ≥ 2, read-out: S55746 KI (mean)
Protocol: SPR experiments were performed as previously described. […] The lowest concentrations used in direct binding experiments were 1 nM for BIAcore 4000 and 0.1 nM for BIAcore S200 instruments, concentrations below these were below the sensitivity thresholds for the instruments. […] Direct binding experiments were fitted to a 1:1 binding site kinetic model, fitting on and off rates, in BIAevaluation software. For competition experiments steady-state responses were determined in BIAevaluation software according to the software defaults in affinity evaluation mode averaging responses for 5 sec. […] All affinity measurements were performed in at least two independent experiments using independent protein preparations.

Chains of the proteins cited; added tags and fusions are not shown. A line that says so, or that is headed by a name, gives the form on record, which may keep a tag or linker.
UniProt P10415, with tags, fused parts or gaps G101V/E152A: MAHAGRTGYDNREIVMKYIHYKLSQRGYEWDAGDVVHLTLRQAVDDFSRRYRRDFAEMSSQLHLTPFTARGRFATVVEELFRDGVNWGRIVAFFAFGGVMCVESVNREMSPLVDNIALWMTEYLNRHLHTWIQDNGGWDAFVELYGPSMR

## O=C(c1cc(-c2cc3c(cc2C(=O)N2Cc4ccccc4C[C@H]2CN2CCOCC2)OCO3)n2c1CCCC2)N(c1ccccc1)c1ccc(O)cc1 [S55746]
  Ki: 5.3 nM and 5.32 nM

Reference: PMC6547681 (Nature Communications, 2019)
